Patent US10323013B2, “Inhibitors of the IRE-1/XBP-1 pathway and methods of using thereof” (H. LEE MOFFITT CANCER CENTER AND RESEARCH INSTITUTE, INC., priority 2013, dated 2019)

Tests used:
Assay type in all cases: cell-based, human
[1] = system: XBP-1s expression in Jeko cells; test: Inhibition of XBP-1s expression in Jeko cells (immunoblots and densitometry); settings: 20 μM, 24 h
[2] = system: XBP-1s expression in Mino cells; test: Inhibition of XBP-1s expression in Mino cells (immunoblots and densitometry); settings: 20 μM, 24 h
XBP-1 mRNA splicing = XBP-1 mRNA splicing by RT-PCR; settings: 20 μM; for XBP-1 splicing (in words): 48 h

SMILES | suppression of XBP-1s expression (in words) [1] | suppression of XBP-1s expression (in words) [2] | XBP-1 splicing (in words) (XBP-1 mRNA splicing; HBL2, Jeko, Mino and Z138 MCL cell lines) | expression of XBP-1s (in words) (XBP-1 mRNA splicing; MEC1, MEC2 and WaC3 cell lines) | XBP-1 splicing (in words) (XBP-1 mRNA splicing; mouse 5TGM1 and human RPMI-8226 MM cells) | suppression of XBP-1s expression (in words) ([1]; listed as C-C05) | suppression of XBP-1s expression (in words) ([2]; listed as C-C05)
CN1CCc2c(c(=O)oc3c(C=O)c(O)ccc23)C1 [Compound 30, 8-hydroxy-3-methyl-5-oxo-2,3,4,5-tetrahydro-1H-chromeno[3,4-c]pyridine-7-carbaldehyde] | potently suppress | potently suppress |  |  |  |  | 
O=c1oc2c(C3OCCCO3)c(O)ccc2c2c1CNCC2 [Compound 28, 7-(1,3-dioxan-2-yl)-8-hydroxy-3,4-dihydro-1H-chromeno[3,4-c]pyridin-5(2H)-one] |  |  | inhibited | suppressed | inhibited |  | 
CC(=O)N1CCc2c(c(=O)oc3c(C=O)c(O)ccc23)C1 [Compound 29, 3-acetyl-8-hydroxy-5-oxo-2,3,4,5-tetrahydro-1H-chromeno[3,4-c]pyridine-7-carbaldehyde] | potently suppress | potently suppress |  |  |  | strong suppression | strong suppression
